We go through one compound from ChEMBL document CHEMBL5543146 (J Med Chem, 2024).

Chains of the proteins cited; added tags and fusions are not shown.
UniProt P22455, whole entry, looked up: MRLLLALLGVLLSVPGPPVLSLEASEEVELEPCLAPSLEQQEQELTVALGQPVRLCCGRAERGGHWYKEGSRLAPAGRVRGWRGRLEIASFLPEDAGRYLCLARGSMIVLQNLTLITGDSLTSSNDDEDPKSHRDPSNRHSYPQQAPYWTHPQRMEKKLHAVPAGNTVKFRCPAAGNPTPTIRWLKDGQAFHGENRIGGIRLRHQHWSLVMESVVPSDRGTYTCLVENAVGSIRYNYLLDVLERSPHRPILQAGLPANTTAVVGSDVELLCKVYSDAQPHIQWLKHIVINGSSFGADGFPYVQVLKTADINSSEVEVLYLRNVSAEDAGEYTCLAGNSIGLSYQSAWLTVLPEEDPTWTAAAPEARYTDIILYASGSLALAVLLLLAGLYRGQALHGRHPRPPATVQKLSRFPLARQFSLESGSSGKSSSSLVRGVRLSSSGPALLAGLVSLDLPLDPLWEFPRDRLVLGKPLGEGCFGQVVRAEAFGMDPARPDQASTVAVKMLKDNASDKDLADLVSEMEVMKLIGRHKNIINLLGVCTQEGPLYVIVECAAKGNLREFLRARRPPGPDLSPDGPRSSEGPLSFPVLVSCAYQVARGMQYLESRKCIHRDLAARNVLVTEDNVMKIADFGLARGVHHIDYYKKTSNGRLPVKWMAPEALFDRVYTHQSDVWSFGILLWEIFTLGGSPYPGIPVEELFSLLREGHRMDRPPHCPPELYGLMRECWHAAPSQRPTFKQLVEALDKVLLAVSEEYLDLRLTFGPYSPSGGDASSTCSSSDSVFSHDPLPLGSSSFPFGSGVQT

The target of this assay is Fibroblast growth factor receptor 4 (Homo sapiens, UniProt P22455).

`COc1cc(OC)cc(-c2ccc3nc(Nc4nc(Cl)ccc4[N+](=O)[O-])ncc3c2)c1`: the Kinact is 1.7 10^-3/s.
